Measured values taken from ChEMBL document CHEMBL1221209.

Experiments:
Conditions in all cases: route intraperitoneal, strain Swiss Webster
Brain [1] = assay: Disruption of endocannabinoid metabolism in Swiss Webster mouse brain assessed as unsaturated C20:4 fatty acid level per gram of tissue at 4 mg/kg, ip after 4 hrs
Brain [2] = assay: Disruption of endocannabinoid metabolism in Swiss Webster mouse brain assessed as saturated C18:0 fatty acid level per gram of tissue at 4 mg/kg, ip after 4 hrs
Brain [3] = assay: Disruption of endocannabinoid metabolism in KIAA1363 deficient Swiss Webster mouse brain assessed as unsaturated C18:2 fatty acid level per gram of tissue at 100 mg/kg, ip after 4 hrs
Brain [4] = assay: Disruption of endocannabinoid metabolism in Swiss Webster mouse brain expressing KIAA1363 gene assessed as anandamide level per gram of tissue at 100 mg/kg, ip after 4 hrs
Brain [5] = assay: Disruption of endocannabinoid metabolism in Swiss Webster mouse brain expressing KIAA1363 gene assessed as saturated C20:0 fatty acid level per gram of tissue at 100 mg/kg, ip after 4 hrs
Brain [6] = assay: Disruption of endocannabinoid metabolism in KIAA1363 deficient Swiss Webster mouse brain assessed as saturated C20:0 fatty acid level per gram of tissue at 100 mg/kg, ip after 4 hrs
Brain [7] = assay: Disruption of endocannabinoid metabolism in Swiss Webster mouse brain expressing KIAA1363 gene assessed as saturated C24:0 fatty acid level per gram of tissue at 100 mg/kg, ip after 4 hrs
Brain [8] = assay: Disruption of endocannabinoid metabolism in KIAA1363 deficient Swiss Webster mouse brain assessed as unsaturated N-oleoyl-ethanolamine level per gram of tissue at 100 mg/kg, ip after 4 hrs
Brain [9] = assay: Disruption of endocannabinoid metabolism in Swiss Webster mouse brain expressing KIAA1363 gene assessed as unsaturated C24:1 fatty acid level per gram of tissue at 100 mg/kg, ip after 4 hrs

SMILES	Activity (Brain [1]) [pmol/g]	Activity (Brain [2]) [pmol/g]	Activity (Brain [3]) [pmol/g]	Activity (Brain [4]) [nmol/g]	Activity (Brain [5]) [pmol/g]	Activity (Brain [6]) [pmol/g]	Activity (Brain [7]) [pmol/g]	Activity (Brain [8]) [pmol/g]	Activity (Brain [9]) [pmol/g]
CCOP(=O)(OCC)Oc1nc(Cl)c(Cl)cc1Cl	11	576	–	–	–	–	–	–	–
CCOP(=S)(OCC)Oc1nc(Cl)c(Cl)cc1Cl	–	–	26	0.018	145	154	1.9	880	142
